The results in this text go back to US8415507B2 (priority 2010, dated 2013).

The conditions of this data set: solution supersaturated with respect to pterostilbene; after three days.

pterostilbene:piperazine [cocrystal 4]: the “Outcome of slurrying in water” value is listed as “precipitation of pterostilbene”.
